# From patent publication US20260274913A1 (Amgen, published 2026)
# The chains behind the UniProt entries cited, without tags or fusion partners. Residues count along the entry.
# UniProt Q9NP99, 21-234 limits assumed: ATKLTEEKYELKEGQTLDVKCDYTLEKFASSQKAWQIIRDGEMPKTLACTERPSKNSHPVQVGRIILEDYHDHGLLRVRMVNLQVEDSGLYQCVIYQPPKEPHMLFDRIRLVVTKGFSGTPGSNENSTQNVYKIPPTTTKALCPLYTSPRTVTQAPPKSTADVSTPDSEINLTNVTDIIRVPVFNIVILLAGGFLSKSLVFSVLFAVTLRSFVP
# UniProt Q9NP99, 21-205: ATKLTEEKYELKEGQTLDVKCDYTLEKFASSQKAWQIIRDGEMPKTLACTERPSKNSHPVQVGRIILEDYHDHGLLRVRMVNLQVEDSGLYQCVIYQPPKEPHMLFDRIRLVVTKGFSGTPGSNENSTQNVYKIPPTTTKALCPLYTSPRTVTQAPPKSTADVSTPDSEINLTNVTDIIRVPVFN
# T1: cyno TREM-1 (cynomolgus monkey, UniProt A0A2K5VHG8 21-233)
# T1 construct: whole, on cells; also called cynomolgus TREM-1
# T1 sequence: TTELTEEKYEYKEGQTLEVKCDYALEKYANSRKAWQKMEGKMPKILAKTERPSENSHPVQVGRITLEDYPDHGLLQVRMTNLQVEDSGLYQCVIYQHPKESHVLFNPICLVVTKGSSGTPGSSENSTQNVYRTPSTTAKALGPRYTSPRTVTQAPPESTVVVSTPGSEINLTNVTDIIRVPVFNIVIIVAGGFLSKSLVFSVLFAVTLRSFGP
# T2: cyno TREM-1-His protein (cynomolgus monkey, UniProt A0A2K5VHG8 21-204)
# T2 construct: extracellular domain; Soluble analyte of the Octet assay; not shown: His tag
# T2 sequence: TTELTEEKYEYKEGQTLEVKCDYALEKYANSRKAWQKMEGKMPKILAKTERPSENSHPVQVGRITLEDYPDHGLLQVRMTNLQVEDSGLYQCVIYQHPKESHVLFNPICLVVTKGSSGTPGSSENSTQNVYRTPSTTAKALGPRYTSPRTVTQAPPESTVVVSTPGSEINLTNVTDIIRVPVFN
# What was measured:
# [1] = target: T1, cyno TREM-1; assay: flow cytometry on HEK293 cells transfected with cyno TREM-1 and DAP12, supernatant 2.5 ug/mL, geomean fold over irrelevant control antibody
# [2] = target: T3, human TREM-1 (human, UniProt Q9NP99 21-234); assay: flow cytometry competition, competitor PGLYRP1-His/PGN on HEK293 cells with human TREM1/DAP12, antibody 2.5 ug/mL
# T3 construct: also called huTREM1; TREM-1 receptor
# [3] = target: T4, recombinant soluble human TREM-1-His protein (human, UniProt Q9NP99 21-205, biotinylated in the bead assays of Tables 6 and 7 (sites not given)); assay: limiting antigen assay, biotinylated huTREM-1-His at 7.5 ng/ml on LumAvidin beads, antibody 5 ug/mL, flow cytometry
# T4 construct: also called b-huTREM-1-His; biotinylated human TREM-1-His antigen; not shown: His tag
# [4] = target: T2, cyno TREM-1-His protein; assay: BLI (Octet HTX), antibody captured on anti-human Fc sensor, cyno TREM-1-His as analyte, 1:1 model
# Procedure: (§1) Briefly, TREM-1 hybridoma supernatants normalized to 10 μg/mL in DMEM null media were prepared by diluting 1:10 in OCTET® assay buffer (10 mM Tris, 0.1% Triton X-100, 150 mM NaCl, 1 mM CaCl₂), 0.1 mg/mL BSA, at pH 7.6) to a final test concentration of 1 μg/mL. Amine reactive second-generation AR2G Biosensors (Molecular Devices) were pre-incubated in 200 μL nanopore water for a minimum of 10 minutes at room temperature before use. The AR2G Biosensors were then activated for 5 minutes in a solution of 20 mM EDC (1-Ethyl-3-[3-dimethylaminopropyl]carbodiimide hydrochloride) (ForteBio) pre-mixed with 10 mM NHS (N-hydroxysulfosuccinimide) (ForteBio) in nanopore water. An in-house generated mouse anti-human Fc monoclonal antibody was coupled to the AR2G Biosensors at 10 μg/mL in 10 mM sodium acetate buffer at pH 5 for 5 minutes, quenched with 1M ethanolamine at pH 8.5 for 5 minutes, and then used to capture antibody from solution. The TREM-1 test antibodies were loaded onto the Biosensors for 5 minutes, and baseline measurements were taken for 1 minute. […] The association of recombinant human TREM-1 with the antibody-loaded sensor was measured for 5 minutes, followed by dissociation in OCTET® buffer for 10 minutes. Biosensors were then regenerated with 10 mM glycine at pH 1.7, reloaded with the same TREM-1 antibodies on the same sensors for 5 minutes, and the same method was used to measure association and dissociation of cyno TREM-1-His protein. Data was referenced using a 0 nM analyte reference sensor. Kinetic analysis was performed using a 1:1 Langmuir model with mass transfer in Genedata Screener software.
# [5] = target: T3, human TREM-1; assay: cell-based or functional assay
# [6] = target: T3, human TREM-1; assay: flow cytometry on HEK293 cells transfected with human TREM-1 and DAP12, supernatant 2.5 ug/mL, geomean fold over irrelevant control antibody
# [7] = target: T4, recombinant soluble human TREM-1-His …; assay: BLI (Octet HTX), antibody captured on anti-human Fc sensor, soluble human TREM-1-His as analyte, 1:1 model
# Procedure: as §1
# [8] = target: T1, cyno TREM-1; assay: cell-based or functional assay
Binder,GM Fold [1] [fold],Receptor-ligand % inhibition [2] [%],FACS Geomean [3],koff [4] [s⁻¹],kon [4] [M⁻¹ s⁻¹],"Ab IC50-Human PBMC (Trial 1), TNFα release induced by PGLYRP1/PGN [5] [pM]",GM Fold [6] [fold],Kd [7] [pM],koff [7] [s⁻¹],kon [7] [M⁻¹ s⁻¹],"Ab IC50-Human PBMC (Trial 2), TNFα release induced by PGLYRP1/PGN [5] [pM]","Ab IC50-Cyno PBMC (Trial 1), TNFα release induced by cyno PGLYRP1/PGN [8] [pM]","Ab IC50-Cyno PBMC (Trial 2), TNFα release induced by cyno PGLYRP1/PGN [8] [pM]"
"61B12 (antibody, V domains shown) VH: QVQLVQSGAEVTKPGASVKVSCKASGYTFTRYDINWVRQATGQGLEWMGWMNPNSGNSGSVQKFRGRVTMTRNTSITTVYMELSSLRSDDTAVYYCARGGISSSWHWAFDIWGQGTMVTVSS VL: DIQMTQSPSSLSASVGDRVTITCQASQDINNHLNWYQQKPGKAPKLLIYGAYTLETGVPSRFSGSGSGTDFTFTISSLQPEDIATYYCQQYDKLPLTFGGGTKVEIK",2090,87,26900,0.000495,391000,8,1850,< 557,< 0.000176,316000,–,–,–
"63F8 (antibody, V domains shown) VH: QVQLVQSGAEVKKPGASVKVSCKASGYTFTSYDINWVRQATGQGLEWMGRMNPKSGNAGYVQNFRGRVTMTRNTSISTAYMELSSLRSEDTAVYYCARGGRTSIWSFVFDYWGQGTLVTVSS VL: DIQMTQSPSSLSASVGDRVTITCQASQDISKHLNWYQQKPGKAPKLLIYDTSNLETGVPSRFSGSGSGTDFTFTISSLQPEDIATYNCQQYDKLPLTFGGGTKVEIK",2370,93,25800,0.000644,752000,3.8,1380,< 220,< 0.000176,799000,3.1,–,–

# Continued, values first:
GM Fold [1] [fold],Receptor-ligand % inhibition [2] [%],FACS Geomean [3],koff [4] [s⁻¹],kon [4] [M⁻¹ s⁻¹],"Ab IC50-Human PBMC (Trial 1), TNFα release induced by PGLYRP1/PGN [5] [pM]",GM Fold [6] [fold],Kd [7] [pM],koff [7] [s⁻¹],kon [7] [M⁻¹ s⁻¹],"Ab IC50-Human PBMC (Trial 2), TNFα release induced by PGLYRP1/PGN [5] [pM]","Ab IC50-Cyno PBMC (Trial 1), TNFα release induced by cyno PGLYRP1/PGN [8] [pM]","Ab IC50-Cyno PBMC (Trial 2), TNFα release induced by cyno PGLYRP1/PGN [8] [pM]",Binder
228,101,80400,0.00128,258000,10,246,881,0.000205,233000,6.9,100,16.2,"34D1 (antibody, V domains shown) VH: QVQLVQSGAEVKKPGASVKVSCKASGYTFTRYDINWVRQATGQGLEWMGWMNPNSGNSGSVQKFRGRVTMTRNTSIHIAYMELSSLRSEDTAVYYCARGGYTSSWRWYFDLWGRGTLVTVSS VL: DIQMTQSPSSLSASVGDRVNITCQASQDIRKHLNWYQQKPGKAPNLLIYDAANLETGVPSRFSGSGSGTAFTFTISSLQPEDIATYYCQHYANLPITFGQGTRLEIK"
2160,91,24800,0.000476,364000,10.2,2070,< 285,< 0.000176,618000,2.7,–,–,"61G5 (antibody, V domains shown) VH: QVQLVQSGAEVKKPGASVKVSCKASGYTFTSYDINWVRQATGQGLEWMGWMNPNSGNSGSVKKFRDRVTMTRNTSISTAYMELSSLRSEDTAVYYCVRLIGYSSAWKWSFQHWGQGTLVTVSS VL: DIQMTQSPSSLSASVGDRVTITCQASRDISKYLNWYQQKPGKAPKLQIYDASNLETGVPSRFSGSGSGTDFTFTISSLQPEDIATYYCQHYDNIPITFGQGTRLEIK"
